The results in this text go back to patent publication US20180191012A1, “AQUEOUS PYRIDINIUM CATION-BASED REDOX FLOW BATTERIES” (UCHICAGO ARGONNE, LLC, priority 2016, published 2018).

The nature of this data set: Electrochemical stability on cycling.

For the substance “N,N′-(ethan-1,2-diyl)-4,4′-dimethyl-2,2′-bipyridinedium dibromide”, under “after 1000 cycles”, the “electrochemical stability: decay” value is “less than 10%”. The electrochemical stability result (result in words) is “excellent electrochemical stability”.
